# Values of other authors in patent publication US10131672B2, “Therapeutic or prophylactic agent for biliary diseases” (Toray Industries, Inc., priority 2010, dated 2018).
# Sequences of proteins named here, by UniProt entry; tags and fusion partners are left off. A change or cut given only in a name is not applied to a line headed by its entry.
# UniProt P01210: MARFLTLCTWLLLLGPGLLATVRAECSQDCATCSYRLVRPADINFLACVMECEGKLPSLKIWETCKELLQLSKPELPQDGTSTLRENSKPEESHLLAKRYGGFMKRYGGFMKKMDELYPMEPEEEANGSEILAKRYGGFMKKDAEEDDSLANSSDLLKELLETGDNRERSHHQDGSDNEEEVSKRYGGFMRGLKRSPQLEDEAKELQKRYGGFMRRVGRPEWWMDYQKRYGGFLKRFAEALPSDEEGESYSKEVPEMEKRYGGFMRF
# Test system: sphincter of Oddi
# Settings: literature reports; cited from earlier work
substance,measurement,value
"Leucine enkephalin (YGGFL; Leu-enkephalin; UniProt P01210 230-234, looked up) [endogenous δ opioid receptor agonist peptide]",action on contraction of sphincter of Oddi,"cause transient contraction of sphincter of Oddi, followed by showing a continuous contraction inhibition action"
